The values below come from patent publication US20240150313A1, “TRI-SUBSTITUTED INDOLE BINDING FUNCTION 3 (BF3) COMPOUNDS AND METHODS FOR THEIR USE” (The University of British Columbia, priority 2021, published 2024).

The nature of the data set: Microsomal stability (half-life). The format is in vitro ADME, human.

With `Fc1cc2c(-c3ccc4ccccc4n3)c[nH]c2c(F)c1F` [Compound 13770, 2-(5,6,7-Trifluoro-1H-indol-3-yl)quinoline], the “microsome stability” value is on record as “more stable”.
